Assay results as given in patent publication US11365196B2, “FGFR inhibitor and application thereof” (Betta Pharmaceuticals Co., Ltd., priority 2017, dated 2022).

Test system: SNU-16 cells
Experiment: Cell proliferation assay on SNU-16, CellTiter Glo (Table 8)
Assay type: cell-based
Conditions: Homo sapiens, 96 hrs, class symbols, read-out: IC50(nM) value of compounds on SNU-16 cells
Text: (§1) Test method: adding the appropriate volume of whole medium and the cells was suspended.

`C=CC(=O)Nc1ccc(CCc2nc3c(-c4c(Cl)c(OC)cc(OC)c4Cl)cc4cnc(NC)nc4n3n2)cc1` [Compound 120, N-(4-(2-(4-(2,6-dichloro-3,5-dimethoxyphenyl)-8-(methylamino)-[1,2,4]triazolo[1′,5′:1,6]pyrido[2,3-d]pyrimidin-2-yl)ethyl)phenyl)acrylamide] was tested. Which IC50 did it give?
Its IC50 is less than 1 nM.

Which IC50 does the source give for `C=CC(=O)N1CCC(CCCc2nc3c(-c4c(Cl)c(OC)cc(OC)c4Cl)cc4cnc(NC)nc4n3n2)CC1` [Compound 130, 1-(4-(3-(4-(2,6-dichloro-3,5-dimethoxyphenyl)-8-(methylamino)-[1,2,4]triazolo[1′,5′:1,6]pyrido[2,3-d]pyrimidin-2-yl)propyl)piperidin-1-yl)prop-2-en-1-one] here?
The IC50 was less than 1 nM.

How did the IC50 turn out when `COc1cc(OC)c(Cl)c(-c2cc3cnc(Nc4ccc(N5CCN(C)CC5)nc4)nc3n3cnnc23)c1` [Compound 110, 6-(2-chloro-3,5-dimethoxyphenyl)-N-(6-(4-methylpiperazin-1-yl)pyridin-3-yl)-[1,2,4]triazolo[4′,3′:1,6]pyrido[2,3-d]pyrimidin-2-amine] was run?
Its IC50 is less than 1 nM.

Test system: NCI-H1581 cells
Experiment: Cell proliferation assay on NCI-H1581 (Table 7)
Assay type: cell-based
Conditions: Homo sapiens, NCI-H1581, read-out: IC50(nM) value of compounds on NCI-H1581 cells
Text: as §1

Which IC50 does the source give for `C=CC(=O)N1CCN(CCCc2nc3c(-c4cc(OC)cc(OC)c4Cl)cc4cnc(NC)nc4n3n2)CC1` [Compound 115, 1-(4-(3-(4-(2-chloro-3,5-dimethoxyphenyl)-8-(methylamino)-[1,2,4]triazolo[1′,5′:1,6]pyrido[2,3-d]pyrimidin-2-yl)propyl)piperazin-1-yl)prop-2-en-1-one] here?
Its IC50 is 0.5 nM.

`COc1cc(OC)c(Cl)c(-c2cc3cnc(Nc4ccc(N5CCN(C6CCC6)CC5)cc4)nc3n3cnnc23)c1` [Compound 105, 6-(2-chloro-3,5-dimethoxyphenyl)-N-(4-(4-cyclobutylpiperazin-1-yl)phenyl)-[1,2,4]triazolo[4′,3′:1,6]pyrido[2,3-d]pyrimidin-2-amine] was tested. Which IC50 did it give?
The IC50 was 1 to 10 nM.

For `C=CC(=O)N1[C@H](C)CN(CCCc2nc3c(-c4c(Cl)c(OC)cc(OC)c4Cl)cc4cnc(NCC(F)F)nc4n3n2)C[C@@H]1C` [Compound 136, 1-((2R,6S)-4-(3-(4-(2,6-dichloro-3,5-dimethoxyphenyl)-8-((2,2-difluoroethyl)amino)-[1,2,4]triazolo[1′,5′:1,6]pyrido[2,3-d]pyrimidin-2-yl)propyl)-2,6-dimethylpiperazin-1-yl)prop-2-en-1-one], which IC50 is on record?
The IC50 was 1 to 10 nM.

With `COc1cc(OC)c(Cl)c(-c2cc3cnc(Nc4ccc(N5CCN(CC(F)(F)F)CC5)cc4)nc3n3cnnc23)c1` [Compound 103, 6-(2-chloro-3,5-dimethoxyphenyl)-N-(4-(4-(2,2,2-trifluoroethyl)piperazin-1-yl)phenyl)-[1,2,4]triazolo[4′,3′:1,6]pyrido[2,3-d]pyrimidin-2-amine] as the compound, how does the IC50 read?
The IC50 was 1 to 10 nM.

Which IC50 does the source give for `COc1cc(OC)c(Cl)c(-c2cc3cnc(Nc4ccc(N[C@H]5CCN(C(=O)N(C)C)C5)cc4)nc3n3cnnc23)c1` [Compound 109, (S)-3-((4-((6-(2-chloro-3,5-dimethoxyphenyl)-[1,2,4]triazolo[4′,3′:1,6]pyrido[2,3-d]pyrimidin-2-yl)amino)phenyl)amino)-N,N-dimethylpyrrolidine-1-carboxamide] here?
The IC50 was 1 to 10 nM.

With `CCN1CCN(c2ccc(Nc3ncc4cc(-c5cc(OC)cc(OC)c5Cl)c5ncnn5c4n3)cc2)CC1` [Compound 2, 4-(2-chloro-3,5-dimethoxyphenyl)-N-(4-(4-ethylpiperazin-1-yl)phenyl)-[1,2,4]triazolo[1′,5′:1,6]pyrido[2,3-d]pyrimidin-8-amine] as the compound, how does the IC50 read?
The IC50 was less than 1 nM.

How did the IC50 turn out when `COc1cc(OC)c(Cl)c(-c2cc3cnc(Nc4ccc(N5CCC(N(C)C)CC5)cc4OC)nc3n3cnnc23)c1` [Compound 31, 6-(2-chloro-3,5-dimethoxyphenyl)-N-(4-(4-(dimethylamino)piperidin-1-yl)-2-methoxyphenyl)-[1,2,4]triazolo[4′,3′:1,6]pyrido[2,3-d]pyrimidin-2-amine] was run?
The IC50 was 10 to 100 nM.

With `C=CC(=O)Nc1ccc(CCc2nc3c(-c4c(Cl)c(OC)cc(OC)c4Cl)cc4cnc(NC)nc4n3n2)cc1` [Compound 120, N-(4-(2-(4-(2,6-dichloro-3,5-dimethoxyphenyl)-8-(methylamino)-[1,2,4]triazolo[1′,5′:1,6]pyrido[2,3-d]pyrimidin-2-yl)ethyl)phenyl)acrylamide] as the compound, how does the IC50 read?
Its IC50 is 1 to 10 nM.

How did the IC50 turn out when `COc1cc(OC)c(Cl)c(-c2cc3cnc(Nc4ccc(N5CCNCC5)cc4)nc3n3cnnc23)c1` [Compound 48, 6-(2-chloro-3,5-dimethoxyphenyl)-N-(4-(piperazin-1-yl)phenyl)-[1,2,4]triazolo[4′,3′:1,6]pyrido[2,3-d]pyrimidin-2-amine] was run?
Its IC50 is 1 to 10 nM.

`C=CC(=O)N1CC2(CN(CCCc3nc4c(-c5c(Cl)c(OC)cc(OC)c5Cl)cc5cnc(NC)nc5n4n3)C2)C1` [Compound 125, 1-(6-(3-(4-(2,6-dichloro-3,5-dimethoxyphenyl)-8-(methylamino)-[1,2,4]triazolo[1′,5′:1,6]pyrido[2,3-d]pyrimidin-2-yl)propyl)-2,6-diazaspiro[3.3]heptan-2-yl)prop-2-en-1-one] was tested. Which IC50 did it give?
The IC50 was 1 to 10 nM.

Which IC50 does the source give for `C=CC(=O)Nc1ccc(CCc2nnc3c(-c4cc(OC)cc(OC)c4Cl)cc4cnc(NCCN5CCOCC5)nc4n23)cc1` [Compound 97, N-(4-(2-(6-(2-chloro-3,5-dimethoxyphenyl)-2-((2-morpholinoethyl)amino)-[1,2,4]triazolo[4′,3′:1,6]pyrido[2,3-d]pyrimidin-9-yl)ethyl)phenyl)acrylamide] here?
Its IC50 is 10 to 100 nM.

For `CCN1CCN(c2ccc(Nc3ncc4cc(-c5cc6[nH]c(C)cc6cc5Cl)c5nncn5c4n3)cc2)CC1` [Compound 71, 6-(5-chloro-2-methyl-1H-indol-6-yl)-N-(4-(4-ethylpiperazin-1-yl)phenyl)-[1,2,4]triazolo[4′,3′:1,6]pyrido[2,3-d]pyrimidin-2-amine], which IC50 is on record?
The IC50 was less than 1 nM.

For `C=CC(=O)N1[C@H](C)CN(CCCc2nc3c(-c4c(Cl)c(OC)cc(OC)c4Cl)cc4cnc(NCC5CC5)nc4n3n2)C[C@@H]1C` [Compound 135, 1-((2R,6S)-4-(3-(8-((cyclopropylmethyl)amino)-4-(2,6-dichloro-3,5-dimethoxyphenyl)-[1,2,4]triazolo[1′,5′:1,6]pyrido[2,3-d]pyrimidin-2-yl)propyl)-2,6-dimethylpiperazin-1-yl)prop-2-en-1-one], which IC50 is on record?
The IC50 was 1 to 10 nM.

For `COc1cc(OC)c(Cl)c(-c2cc3cnc(Nc4ccc(N5CCN(C)CC5)nc4)nc3n3cnnc23)c1` [Compound 110, 6-(2-chloro-3,5-dimethoxyphenyl)-N-(6-(4-methylpiperazin-1-yl)pyridin-3-yl)-[1,2,4]triazolo[4′,3′:1,6]pyrido[2,3-d]pyrimidin-2-amine], which IC50 is on record?
Its IC50 is 1 to 10 nM.

`C=CC(=O)N1[C@H](C)CN(CCCc2nc3c(-c4c(Cl)c(OC)cc(OC)c4Cl)cc4cnc(NC)nc4n3n2)C[C@@H]1C` [Compound 133, 1-((2R,6S)-4-(3-(4-(2,6-dichloro-3,5-dimethoxyphenyl)-8-(methylamino)-[1,2,4]triazolo[1′,5′:1,6]pyrido[2,3-d]pyrimidin-2-yl)propyl)-2,6-dimethylpiperazin-1-yl)prop-2-en-1-one] was tested. Which IC50 did it give?
Its IC50 is less than 1 nM.

`COc1cc(OC)c(Cl)c(-c2cc3cnc(Nc4ccc(CN5CCNCC5)cc4)nc3n3cnnc23)c1` [Compound 58, 6-(2-chloro-3,5-dimethoxyphenyl)-N-(4-(piperazin-1-ylmethyl)phenyl)-[1,2,4]triazolo[4′,3′:1,6]pyrido[2,3-d]pyrimidin-2-amine] was tested. Which IC50 did it give?
Its IC50 is 10 to 100 nM.

Which IC50 does the source give for `CCN1CCN(c2ccc(Nc3ncc4cc(-c5cc(OC)cc(OC)c5Cl)c5nncn5c4n3)cc2)C(=O)C1` [Compound 18, 6-(2-chloro-3,5-dimethoxyphenyl)-N-(4-(4-ethyl-2-oxopiperazin-1-yl)phenyl)-[1,2,4]triazolo[4′,3′:1,6]pyrido[2,3-d]pyrimidin-2-amine] here?
The IC50 was 1 to 10 nM.

With `COc1cc(OC)c(Cl)c(-c2cc3cnc(Nc4ccc(N5C[C@@H](C)N(C)[C@@H](C)C5)cc4)nc3n3cnnc23)c1` [Compound 20, 6-(2-chloro-3,5-dimethoxyphenyl)-N-(4-((3S,5R)-3,4,5-trimethylpiperazin-1-yl)phenyl)-[1,2,4]triazolo[4′,3′:1,6]pyrido[2,3-d]pyrimidin-2-amine] as the compound, how does the IC50 read?
The IC50 was less than 1 nM.

`CCN1CCN(Cc2ccc(Nc3ncc4cc(-c5cc(OC)cc(OC)c5Cl)c5nncn5c4n3)cc2)CC1` [Compound 44, 6-(2-chloro-3,5-dimethoxyphenyl)-N-(4-((4-ethylpiperazin-1-yl)methyl)phenyl)-[1,2,4]triazolo[4′,3′:1,6]pyrido[2,3-d]pyrimidin-2-amine] was tested. Which IC50 did it give?
Its IC50 is 1 to 10 nM.

How did the IC50 turn out when `COc1cc(OC)c(Cl)c(-c2cc3cnc(Nc4ccc(N5CCOCC5)cc4)nc3n3cnnc23)c1` [Compound 10, 6-(2-chloro-3,5-dimethoxyphenyl)-N-(4-morpholinophenyl)-[1,2,4]triazolo[4′,3′:1,6]pyrido[2,3-d]pyrimidin-2-amine] was run?
The IC50 was 1 to 10 nM.

With `CCN1CCN(c2ccc(Nc3ncc4cc(-c5cc(OC)cc(OC)c5Cl)c5nncn5c4n3)cc2)CC1=O` [Compound 19, 6-(2-chloro-3,5-dimethoxyphenyl)-N-(4-(4-ethyl-3-oxopiperazin-1-yl)phenyl)-[1,2,4]triazolo[4′,3′:1,6]pyrido[2,3-d]pyrimidin-2-amine] as the compound, how does the IC50 read?
Its IC50 is 1 to 10 nM.

`C=CC(=O)N1CCC(N(C)CCCc2nc3c(-c4c(Cl)c(OC)cc(OC)c4Cl)cc4cnc(NC)nc4n3n2)CC1` [Compound 134, 1-(4-((3-(4-(2,6-dichloro-3,5-dimethoxyphenyl)-8-(methylamino)-[1,2,4]triazolo[1′,5′:1,6]pyrido[2,3-d]pyrimidin-2-yl)propyl)(methyl)amino)piperidin-1-yl)prop-2-en-1-one] was tested. Which IC50 did it give?
The IC50 was less than 1 nM.

`COc1cc(OC)c(Cl)c(-c2cc3cnc(Nc4ccc(N5CCN(C6CC(O)C6)CC5)cc4)nc3n3cnnc23)c1` (centres unmarked) [Compound 101, 3-(4-(4-((6-(2-chloro-3,5-dimethoxyphenyl)-[1,2,4]triazolo[4′,3′:1,6]pyrido[2,3-d]pyrimidin-2-yl)amino)phenyl)piperazin-1-yl)cyclobutan-1-ol] was tested. Which IC50 did it give?
Its IC50 is 1 to 10 nM.

For `COc1cc(OC)c(Cl)c(-c2cc3cnc(Nc4ccc(N5CCN(C6CC6)CC5)cc4)nc3n3cnnc23)c1` [Compound 12, 6-(2-chloro-3,5-dimethoxyphenyl)-N-(4-(4-cyclopropylpiperazin-1-yl)phenyl)-[1,2,4]triazolo[4′,3′:1,6]pyrido[2,3-d]pyrimidin-2-amine], which IC50 is on record?
Its IC50 is 1 to 10 nM.

For `COc1cc(OC)cc(-c2cc3cnc(Nc4ccc(N5CCN6CCC[C@@H]6C5)cc4)nc3n3cnnc23)c1` [Compound 39, (R)-6-(3,5-dimethoxyphenyl)-N-(4-(hexahydropyrrolo[1,2-a]pyrazin-2(1H)-yl)phenyl)-[1,2,4]triazolo[4′,3′:1,6]pyrido[2,3-d]pyrimidin-2-amine], which IC50 is on record?
The IC50 was 10 to 100 nM.

`C=CC(=O)N1CCN(CCCc2nc3c(-c4c(Cl)c(OC)cc(OC)c4Cl)cc4cnc(NC)nc4n3n2)CC1` [Compound 122, 1-(4-(3-(4-(2,6-dichloro-3,5-dimethoxyphenyl)-8-(methylamino)-[1,2,4]triazolo[1′,5′:1,6]pyrido[2,3-d]pyrimidin-2-yl)propyl)piperazin-1-yl)prop-2-en-1-one] was tested. Which IC50 did it give?
Its IC50 is less than 1 nM.
